Our source for the IC50 values is US20240360179A1, “STAPLED PEPTIDES AND METHODS THEREOF” (FOG PHARMACEUTICALS, INC., priority 2021, published 2024).

Sequences of proteins named here, by UniProt entry; tags and fusion partners are left off.
UniProt P35222, whole entry: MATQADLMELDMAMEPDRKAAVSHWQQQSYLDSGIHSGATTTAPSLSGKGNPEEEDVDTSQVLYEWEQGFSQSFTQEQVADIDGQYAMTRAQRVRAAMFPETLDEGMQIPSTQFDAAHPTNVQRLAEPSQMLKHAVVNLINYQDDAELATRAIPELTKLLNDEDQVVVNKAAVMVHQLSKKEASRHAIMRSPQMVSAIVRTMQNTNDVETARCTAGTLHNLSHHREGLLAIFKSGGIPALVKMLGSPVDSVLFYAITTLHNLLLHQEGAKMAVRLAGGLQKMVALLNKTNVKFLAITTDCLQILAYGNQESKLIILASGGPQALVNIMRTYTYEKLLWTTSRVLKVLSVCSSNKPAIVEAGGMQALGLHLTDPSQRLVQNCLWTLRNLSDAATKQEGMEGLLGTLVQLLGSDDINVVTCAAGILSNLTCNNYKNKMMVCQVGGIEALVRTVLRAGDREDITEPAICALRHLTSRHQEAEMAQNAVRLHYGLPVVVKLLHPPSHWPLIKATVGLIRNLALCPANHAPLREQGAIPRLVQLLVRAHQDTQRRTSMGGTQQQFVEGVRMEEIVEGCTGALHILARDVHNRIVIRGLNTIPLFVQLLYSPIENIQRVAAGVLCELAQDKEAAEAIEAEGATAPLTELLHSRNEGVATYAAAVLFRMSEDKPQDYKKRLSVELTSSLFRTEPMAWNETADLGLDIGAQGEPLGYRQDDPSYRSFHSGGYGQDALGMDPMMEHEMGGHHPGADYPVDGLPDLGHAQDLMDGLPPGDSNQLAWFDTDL

The experiment deals with T1, full-length B-Catenin (Uniprot ID P35222) (Homo sapiens, UniProt P35222).
T1 construct: 10 nM full-length B-Catenin (Uniprot ID P35222)
The class given is binding. The conditions noted are these: competition fluorescence polarization; read-out: beta-Catenin FP IC50.
For the substance “Ac-PL3-Asp-Ile-B5-Asp-3COOHF-Aib-Ala-Phe-Lys*3-PyrS2-Phe-34ClF-dGlnR*3-Ala-NH2 [I-1759]”, the IC50 was 50 to 200 nM.

With “Ac-PL3-Asp-Npg-B5-Asp-3COOHF-Aib-Ala-4CNF-Lys*3-PyrS2-3Thi-BztA-GlnR*3-Ala-NH2 [I-585]”, the half-maximal inhibitory concentration (IC50) is below 50 nM.

As to “Ac-PL3-Asp-Ile-B5-Asp-3COOHF-Aib-Ala-Phe-Lys*3-PyrS2-3Thi-3F3MeF-GlnR*3-NH2 [I-1614]”, the half-inhibitory concentration (IC50) was below 50 nM.

With “Ac-PL3-Asp-Ile-B5-Asp-3COOHF-Ala-Ala-Phe-sCH2S*3-PyrS2-Phe-34ClF-TriAzOrn*3-NH2 [I-1869]”, the IC50 was below 50 nM.

Turning to “Ac-PL3-aThr-DipA-B5-Asp-3COOHF-nLeu-Ala-Phe-Lys*3-PyrS2-3Thi-34ClF-GlnR*3-NH2 [I-1637]”, the IC50 is 50 to 200 nM.

For “Ac-PL3-Asp-Npg-B5-Asp-3COOHF-Aib-Ala-Phe-Lys*3-PyrS2-[Me2NPr]2NH2F-BztA-GlnR*3-Ala-NH2 [I-1749]”, the IC50 is below 50 nM.

Regarding “Ac-PL3-Asp-Ile-B5-Asp-3COOHF-Aib-Ala-Phe-Lys*3-PyrS2-Phe-34ClF-GlnR*3-Ala-Ala-Ala-[mPEG16]Lys-NH2 [I-1413]”, the IC50 is below 50 nM.

For “Ac-PL3-Asp-Npg-B5-Asp-3COOHF-Aib-Ala-RbiPrF-Lys*3-PyrS2-3Thi-BztA-GlnR*3-Ala-NH2 [I-595]”, the half-inhibitory concentration (IC50) is above 1000 nM.

For “Ac-PL3-Asp-Npg-B5-Asp-3COOHF-Aib-Ala-Aic-Lys*3-PyrS2-3Thi-BztA-GlnR*3-Ala-NH2 [I-593]”, the half-maximal inhibitory concentration (IC50) was above 1000 nM.

For the substance “Ac-PL3-Asp-DipA-B5-Asp-3COOHF-Ala-Ala-Phe-Lys*3-PyrS2-3Thi-34ClF-GlnR*3-NH2 [I-1111]”, the IC50 was below 50 nM.

Take “Ac-PL3-Asp-Ile-B5-Asp-3COOHF-GlnR*3-Ala-Phe-Ala-PyrS2-Phe-34ClF-GlnMePDA*3-NH2 [I-1803]”: the IC50 lay within 200 to 750 nM.

For “Ac-PL3-Asp-Leu-B5-Asp-3COOHF-GlnR*3-Ala-Phe-Ala-PyrS2-Phe-34ClF-Gln6DA*3-NH2 [I-1834]”, the half-maximal inhibitory concentration (IC50) was below 50 nM.

On to “C3a-PL3-Asp-Ile-B5-Asp-3COOHF-Aib-Ala-Phe-Lys*3-PyrS2-3Thi-34ClF-GlnR*3-NH2 [I-1582]”, for which the IC50 was below 50 nM.

With “Ac-PL3-Asp-Ile-B5-Asp-3COOHF-Aib-Ala-Phe-Lys*3-PyrS2-hPhe-BztA-GlnR*3-Ala-NH2 [I-1311]”, the IC50 is 50 to 200 nM.

In the case of “Ac-PL3-Asp-Npg-B5-Asp-3COOHF-Aib-Ala-Phe-[m5Meb]hCys-PyrS2-3Thi-BztA-aMeC-Ala-NH2 [I-1426]”, the half-maximal inhibitory concentration (IC50) is 50 to 200 nM.

“Ac-PL3-Asp-Ile-B5-Asp-3COOHF-Aib-Ala-Phe-Lys*3-PyrS2-2FF-BztA-GlnR*3-NH2 [I-1543]”: the IC50 is below 50 nM.

As for “Ac-PL3-Asp-Npg-B5-Asp-3COOHF-[Ac]PyrSa-Ala-Phe-Lys*3-PyrS2-3Thi-BztA-GlnR*3-Ala-NH2 [I-1031]”, the IC50 was 50 to 200 nM.

For the substance “Ac-PL3-Asp-Ile-B5-Asp-3COOHF-Phe-Ala-Phe-TriAzLys*3-PyrS2-3Thi-34ClF-sAla*3-Ala-NH2 [I-1091]”, the half-inhibitory concentration (IC50) was below 50 nM.

With “Ac-S6-Aib-Asp-Npg-B5-Asp-3COOHF-Aib-Ala-Phe-Lys*3-PyrS2-Phe-34ClF-GlnR*3-NH2 [I-1523]”, the half-maximal inhibitory concentration (IC50) is below 50 nM.

For “Ac-Pro-S5-Val-Asp-Val-B5-Asp-3COOHF-Aib-Ala-Phe-Lys*3-PyrS1-Phe-34ClF-GlnR*3-NH2 [I-1891]”, the IC50 was below 50 nM.

Turning to “Ac-PL3-Asp-Npg-B5-Asp-3COOHF-Aib-Ala-3BrF-Lys*3-PyrS2-3Thi-BztA-GlnR*3-Ala-NH2 [I-579]”, the IC50 was below 50 nM.

“Ac-PL3-Asp-Ile-B5-Asp-3COOHF-Aib-Ala-Phe-Orn*3-PyrS2-Phe-34ClF-dGlnR*3-Ala-NH2 [I-1782]”: the IC50 was below 50 nM.

For the substance “Ac-PL3-Asp-Npg-B5-Asp-3COOHF-Aib-Ala-Phe-[2_6-naph]hCys-PyrS2-3Thi-BztA-Cys-Ala-NH2 [I-1270]”, the concentration for half-maximal inhibition (IC50) was in the range of 200 to 750 nM.

For “Ac-S5-Ala-Asp-Ile-B5-Asp-3COOHF-Ala-Ala-Phe-Lys*3-PyrS2-Phe-34ClF-GlnR*3-NH2 [I-1240]”, the 50% inhibitory concentration (IC50) lay in the range of 50 to 200 nM.

As to “Ac-PL3-Asp-DipA-B5-Hse-3COOHF-nLeu-Ala-Phe-Lys*3-PyrS2-3Thi-BztA-GlnR*3-NH2 [I-1686]”, the IC50 is 50 to 200 nM.

As for “Ac-S5-Ala-Asp-Ile-B5-Asp-3COOHF-Aib-Ala-Phe-Lys*3-PyrS2-Phe-34ClF-GlnR*3-NH2 [I-1234]”, the IC50 was below 50 nM.

With “Ac-PL3-Asp-Npg-B5-Asp-3COOHF-Aib-Ala-Phe-Lys*3-PyrS2-[Bnc]2NH2F-BztA-GlnR*3-Ala-NH2 [I-1661]”, the IC50 lay within 200 to 750 nM.

As to “Ac-PL3-Asp-Leu-B5-Asp-3COOHF-GlnT4CyMe*3-Ala-Phe-Val-PyrS2-Phe-34ClF-GlnR*3-NH2 [I-1837]”, the IC50 was 50 to 200 nM.

With “Ac-PL3-Asp-Ile-B5-Asp-3COOHF-Phe-Ala-Phe-Lys*3-PyrS2-3Thi-34MeF-GlnR*3-NH2 [I-1102]”, the IC50 was below 50 nM.

As to “Ac-PL3-Asp-Npg-B5-Asp-3COOHF-Aib-Ala-Phe-Lys*3-PyrS2-3Thi-BztA-GlnR*3-Ala-Ala-[Ac]Lys-NH2 [I-1392]”, the IC50 is below 50 nM.

For the substance “Ac-PL3-Asp-DipA-B5-Asp-3COOHF-Ala-Ala-Phe-Lys*3-PyrS2-Phe-BztA-GlnR*3-Val-NH2 [I-1847]”, the concentration for half-maximal inhibition (IC50) was below 50 nM.

As to “Ac-PL3-Asp-Npg-B5-Asp-3COOHF-Aib-Ala-Phe-Lys*3-PyrS2-[2PyAc]2NH2F-BztA-GlnR*3-Ala-NH2 [I-1740]”, the IC50 was below 50 nM.

For “Ac-Pro-S5-Leu-Asp-Leu-B5-Asp-3COOHF-Aib-Ala-Phe-Lys*3-PyrS1-Phe-34ClF-GlnR*3-NH2 [I-1895]”, the half-maximal inhibitory concentration (IC50) is below 50 nM.

Regarding “Ac-PL3-Asp-Leu-B5-Asp-3COOHF-Aib-Ala-Phe-Lys*3-PyrS2-Phe-BztA-GlnR*3-Ala-NH2 [I-1912]”, the IC50 was below 50 nM.

With “Ac-PL3-Asp-Npg-B5-Asp-TfeGA-Aib-Ala-Phe-Lys*3-PyrS2-2F3MeF-BztA-GlnR*3-NH2 [I-887]”, the IC50 was below 50 nM.

Consider “NPyroR3-Ser-Npg-B5-Asp-3COOHF-Aib-Ala-Phe-Lys*3-PyrS2-3Thi-34ClF-GlnR*3-NH2 [I-1558]”, for which the IC50 was in the range of 750 to 1000 nM.

With “Ac-PL3-Asp-Leu-B5-Asp-3COOHF-GlnR*3-Ala-Phe-Ala-PyrS2-Phe-34ClF-Gln3ACPip*3-NH2 [I-1902]”, the IC50 was in the range of 50 to 200 nM.

On to “Ac-S5-Tle-Asp-Ile-B5-Asp-3COOHF-Aib-Ala-Phe-Lys*3-PyrS2-Phe-34ClF-GlnR*3-NH2 [I-1342]”, for which the IC50 fell in the range of 50 to 200 nM.

“Ac-PL3-Asp-Leu-B5-Asp-3COOHF-Aib-Ala-Phe-Lys*3-PyrS2-5ClW-34ClF-GlnR*3-Ala-NH2 [I-1910]”: the half-inhibitory concentration (IC50) is below 50 nM.

For the substance “Ac-PL3-Asp-Ile-B5-Asp-3COOHF-Aib-Ala-Phe-Lys*3-PyrS2-3Thi-BztA-GlnR*3-Ala-NH2 [I-706]”, the IC50 was below 50 nM.

“Ac-PL3-Asp-Ile-B5-Asp-3COOHF-Aib-Ala-Phe-Lys*3-PyrS2-Phe-3F3MeF-GlnR*3-NH2 [I-1608]”: the IC50 is below 50 nM.

Regarding “Ac-PL3-Asp-DipA-B5-Asp-3COOHF-Thr-Ala-Phe-Lys*3-PyrS2-Phe-BztA-GlnR*3-NH2 [I-1853]”, the half-inhibitory concentration (IC50) is below 50 nM.

With “Ac-S5-Ala-Asp-Phe-B5-Asp-3COOHF-Aib-Ala-Phe-Lys*3-PyrS2-Phe-34ClF-GlnR*3-Ala-NH2 [I-1237]”, the 50% inhibitory concentration (IC50) was below 50 nM.

For “Bua-PL3-Asp-Ile-B5-Asp-3COOHF-Aib-Ala-Phe-Lys*3-PyrS2-3Thi-34ClF-GlnR*3-NH2 [I-1584]”, the IC50 was below 50 nM.

“Me2NAc-PL3-Asp-Npg-B5-Asp-3COOHF-Aib-Ala-Phe-Lys*3-PyrS2-3Thi-BztA-GlnR*3-Ala-NH2 [I-1078]”: the IC50 is below 50 nM.

On to “Ac-PL3-Asp-Npg-B5-Asp-3COOHF-Aib-Ala-Phe-Lys*3-PyrS2-2PhF-BztA-GlnR*3-Ala-NH2 [I-949]”, for which the IC50 lay in the range of 50 to 200 nM.

For “Ac-PL3-Asp-Ile-B5-Asp-3COOHF-Phe-Ala-Phe-TriAzLys*3-PyrS2-Phe-34ClF-sAla*3-NH2 [I-1096]”, the concentration for half-maximal inhibition (IC50) was below 50 nM.

As to “Ac-PL3-Asp-Npg-B5-Asp-3COOHF-Aib-Ala-Phe-Lys*3-PyrS2-3Thi-BztA-GlnR*3-Ala-Ala-Lys-Ala-Ala-Ala-Lys-NH2 [I-1158]”, the half-maximal inhibitory concentration (IC50) is below 50 nM.

As to “Ac-PL3-Asp-Npg-B5-Asp-3COOHF-Npg-Ala-Phe-Lys*3-PyrS2-2F3MeF-BztA-GlnR*3-Ala-NH2 [I-100]”, the IC50 is below 50 nM.

On to “Ac-PL3-Asp-Npg-B5-Asp-3COOHF-Aib-Ala-Phe-Lys*3-PyrS2-hnLeu-34MeF-GlnR*3-Ala-NH2 [I-763]”, for which the IC50 is below 50 nM.

On to “Ac-PL3-Asp-Npg-B5-Asp-3COOHF-Aib-Ala-Phe-Lys*3-PyrS2-hnLeu-34ClF-GlnR*3-Leu-Ser-NH2 [I-956]”, for which the IC50 is below 50 nM.

For “Ac-PL3-Asp-Npg-B5-Asp-3COOHF-Aib-Ala-Phe-Lys*3-PyrS2-3Thi-34ClF-GlnR*3-Ala-Ala-Ala-[mPEG8]-Lys [I-1707]”, the IC50 is below 50 nM.

As to “Ac-PL3-Asp-Ile-B5-Asp-3COOHF-CyLeu-Ala-Phe-Lys*3-PyrS2-3Thi-34ClF-GlnR*3-Val-Glu-Ala-NH2 [I-1266]”, the half-maximal inhibitory concentration (IC50) is below 50 nM.

As for “Ac-PL3-Asp-Npg-B5-Asp-[Me2Mal]Dap-Aib-Ala-Phe-Lys*3-PyrS2-3Thi-BztA-GlnR*3-Ala-NH2 [I-1433]”, the 50% inhibitory concentration (IC50) was below 50 nM.

In the case of “Ac-PL3-Asp-Npg-B5-Asp-3COOHF-Aib-Ala-Phe-Lys*3-PyrS2-3Thi-BztA-GlnR*3-Ala-NHMe [I-1400]”, the concentration for half-maximal inhibition (IC50) is below 50 nM.

For the substance “Ac-PL3-isoGlu-Npg-B5-Asp-3COOHF-Aib-Ala-Phe-Lys*3-PyrS2-3Thi-BztA-GlnR*3-Ala-NH2 [I-958]”, the 50% inhibitory concentration (IC50) is above 1000 nM.

In the case of “Ac-PL3-Asp-Ile-B5-Asp-3COOHF-Cbg-Ala-Phe-Lys*3-PyrS2-3Thi-BztA-GlnR*3-Ala-NH2 [I-856]”, the IC50 was below 50 nM.

Take “Ac-PL3-Asp-Npg-B5-Asp-3COOHF-Aib-Ala-Phe-Lys*3-PyrS2-hCypA-BztA-GlnR*3-Val-Glu-Ala-NH2 [I-1346]”: the IC50 is below 50 nM.

Consider “Ac-PL3-Asp-Npg-B5-Asp-3COOHF-Ala-Ala-Phe-Lys*3-SPip3-2F3MeF-BztA-GlnR*3-Ala-NH2 [I-779]”, for which the concentration for half-maximal inhibition (IC50) is 50 to 200 nM.
